Molecular target: Carbonic anhydrase 2 (Homo sapiens, UniProt P00918)
Test: Esterase Activity Assay
Settings: pH 7.4; 25 °C

Ki: 675 µM
SMILES: O=C(O)c1ccc(O)cc1 [4-Hydroxybenzoate, III]

— BindingDB's records for doi:10.1111/j.1747-0285.2010.00965.x (Ataturk University, 2010)
